Target: TACE (ADAM17) (Homo sapiens, UniProt P78536)
Test: TACE (ADAM17) inhibition test
Assay type: biochemical
Details: read-out: TACE IC50; fluorescent synthetic substrate, 37° C. for 1.5 hours
Description: The nucleotide sequence of TACE has been reported by Moss et al. (Moss, M. L. et al., Nature 1997, vol. 385, pp. 733-736). Based on this information, the cDNA of TACE was obtained according to the prescribed method from THP-1 cells or the like, and then incorporated the cDNA into an expression vector. Next, this vector was transformed into mammalian cells or insect cells, and TACE protein was expressed. The TACE protein was isolated, and used as an enzyme. Further, a fluorescent synthetic substrate Nma(N-methylanthranilic acid)-Leu-Ala-Gln-Ala-Val-Arg-Ser-Ser-Lys(Dnp(dinitrophenyl))-D-Arg-NH2 including the TACE-cleaved sequence of a membrane-bound TNF was used as a substrate. […] Enzyme activity was then determined by measuring with a fluorescence intensity meter (Labsystems, Fluoroskan Ascent) at an excitation wavelength of 355 nm and a measurement wavelength of 460 nm. […]

The chains behind the UniProt entries cited, without tags or fusion partners. Residues count along the entry.
UniProt P78536, 215-824 limits assumed: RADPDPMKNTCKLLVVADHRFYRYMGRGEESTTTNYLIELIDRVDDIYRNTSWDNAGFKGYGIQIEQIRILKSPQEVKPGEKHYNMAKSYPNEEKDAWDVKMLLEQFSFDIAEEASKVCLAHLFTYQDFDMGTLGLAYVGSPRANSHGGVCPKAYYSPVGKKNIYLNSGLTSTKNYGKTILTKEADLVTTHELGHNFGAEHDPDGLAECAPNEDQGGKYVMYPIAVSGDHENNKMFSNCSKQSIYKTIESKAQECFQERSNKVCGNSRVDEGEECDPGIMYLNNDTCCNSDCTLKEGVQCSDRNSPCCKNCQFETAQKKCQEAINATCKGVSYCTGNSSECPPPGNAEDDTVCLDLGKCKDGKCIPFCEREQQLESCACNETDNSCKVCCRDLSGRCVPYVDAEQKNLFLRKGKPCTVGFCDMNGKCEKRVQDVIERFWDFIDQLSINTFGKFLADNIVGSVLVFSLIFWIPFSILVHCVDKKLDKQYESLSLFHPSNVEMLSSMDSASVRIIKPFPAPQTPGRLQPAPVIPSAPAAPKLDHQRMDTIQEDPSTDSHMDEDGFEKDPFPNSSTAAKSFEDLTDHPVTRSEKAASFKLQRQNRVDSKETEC

SMILES: Cc1cccn(CC2(c3ccc(/C=C/C4CCCCC4)cc3)NC(=O)NC2=O)c1=O (racemic)
- IC50: > 100 nM

Source: patent US20160168540A1, “COMPOSITION FOR MAINTAINING PLATELET FUNCTION” (KYOTO UNIVERSITY, priority 2013, published 2016)
